The values below come from patent publication US8673347B2 (Creabilis Therapeutics S.p.A., priority 2005, dated 2014).

In this assay the target is T1, MAP2K3 (Homo sapiens, UniProt P46734).
T1 sequence (P46734 1-347): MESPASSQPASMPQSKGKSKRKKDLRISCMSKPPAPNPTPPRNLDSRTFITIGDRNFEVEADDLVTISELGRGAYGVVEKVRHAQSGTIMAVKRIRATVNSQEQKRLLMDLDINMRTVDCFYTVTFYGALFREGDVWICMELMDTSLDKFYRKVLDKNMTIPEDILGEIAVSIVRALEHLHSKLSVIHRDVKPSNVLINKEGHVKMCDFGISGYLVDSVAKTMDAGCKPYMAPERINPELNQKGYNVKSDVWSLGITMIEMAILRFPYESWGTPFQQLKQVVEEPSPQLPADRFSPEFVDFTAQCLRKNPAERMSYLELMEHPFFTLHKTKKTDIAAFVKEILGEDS
Nature of the assay: Kinase inhibition profile. The assay is classed as biochemical. The conditions noted are these: read-out: inhibitory activity.

As to `COC(=O)[C@]1(O)C[C@@H]2O[C@@]1(C)n1c3ccccc3c3c4c(c5c6ccccc6n2c5c31)C(=O)NC4` [Compound K-252a, K-252a], the inhibition at 0.2 µM was greater than 90%.
